We go through one compound from US11787796B2, “Plasma Kallikrein inhibitors and uses thereof” (Takeda Pharmaceutical Company Limited, priority 2019, dated 2023).

The chains behind the UniProt entries cited, without tags or fusion partners. Residues count along the entry.
UniProt P03952, 391-638 limits assumed: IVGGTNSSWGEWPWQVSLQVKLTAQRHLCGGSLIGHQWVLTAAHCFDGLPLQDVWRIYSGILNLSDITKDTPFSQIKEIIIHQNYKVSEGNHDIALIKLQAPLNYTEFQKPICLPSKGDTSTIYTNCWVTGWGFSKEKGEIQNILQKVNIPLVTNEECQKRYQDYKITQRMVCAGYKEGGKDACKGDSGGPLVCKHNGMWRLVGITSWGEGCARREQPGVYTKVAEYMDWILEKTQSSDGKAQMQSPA
UniProt P03952, 20-390 partner limits assumed: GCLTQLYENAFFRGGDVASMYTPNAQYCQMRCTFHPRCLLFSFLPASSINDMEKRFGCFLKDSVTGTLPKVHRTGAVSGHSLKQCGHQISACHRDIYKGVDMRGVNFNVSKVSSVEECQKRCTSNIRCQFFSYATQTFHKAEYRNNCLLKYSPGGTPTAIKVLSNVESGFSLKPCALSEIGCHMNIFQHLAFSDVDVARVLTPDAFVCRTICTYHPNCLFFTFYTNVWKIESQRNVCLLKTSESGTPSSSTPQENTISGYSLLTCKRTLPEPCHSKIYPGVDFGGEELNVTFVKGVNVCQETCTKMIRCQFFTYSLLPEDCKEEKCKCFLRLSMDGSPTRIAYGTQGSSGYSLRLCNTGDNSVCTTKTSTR

The target of this experiment is human activated kallikrein enzyme (Homo sapiens (Human), UniProt P03952). The experiment can be described thus: Plasma kallikrein inhibition assay with fluorogenic peptide substrate, 500 pM activated kallikrein format. As to conditions: read-out: Primary Dose Response Assay: Average EC50, 300 uM Pro-Phe-Arg-7-amido-4-methylcoumarin substrate, 30 min preincubation, 10 min reaction at RT. In kind it is biochemical.

Consider `O=C(NCc1cc2c(cn1)OCCO2)c1cn(Cc2cn3cc(C4CC4)ccc3n2)nn1`, for which the EC50 (usually the concentration giving half of the maximal effect) lay in the range of 0.1 to 2 µM.
